This note sets out measurements from patent US20240025887A1, “THIENYL AND CYCLOALKYL AMINOPYRIMIDINE COMPOUNDS AS INHIBITORS OF NUAK KINASES, COMPOSITIONS AND USES THEREOF” (Ontario Institute for Cancer Research (OICR), priority 2021, published 2024).

Amino acid sequences for entries named in this document (tags omitted).
UniProt O60285, whole entry: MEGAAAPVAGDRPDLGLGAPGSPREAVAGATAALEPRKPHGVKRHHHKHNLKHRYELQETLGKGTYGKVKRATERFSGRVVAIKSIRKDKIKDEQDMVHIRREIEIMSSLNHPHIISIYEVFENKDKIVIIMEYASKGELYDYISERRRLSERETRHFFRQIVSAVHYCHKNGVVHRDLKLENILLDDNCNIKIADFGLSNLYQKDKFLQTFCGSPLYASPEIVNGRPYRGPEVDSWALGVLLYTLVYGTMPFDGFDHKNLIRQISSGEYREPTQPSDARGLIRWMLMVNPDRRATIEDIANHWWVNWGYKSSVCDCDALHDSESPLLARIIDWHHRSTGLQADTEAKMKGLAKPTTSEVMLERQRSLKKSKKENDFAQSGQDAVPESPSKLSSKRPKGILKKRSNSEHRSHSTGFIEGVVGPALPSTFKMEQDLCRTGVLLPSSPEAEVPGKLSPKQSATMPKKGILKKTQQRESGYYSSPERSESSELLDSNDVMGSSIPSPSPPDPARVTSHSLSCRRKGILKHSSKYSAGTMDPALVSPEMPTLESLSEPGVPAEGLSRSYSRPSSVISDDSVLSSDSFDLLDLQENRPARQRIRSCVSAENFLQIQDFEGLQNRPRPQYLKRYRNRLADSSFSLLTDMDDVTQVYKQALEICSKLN
UniProt O14965, whole entry: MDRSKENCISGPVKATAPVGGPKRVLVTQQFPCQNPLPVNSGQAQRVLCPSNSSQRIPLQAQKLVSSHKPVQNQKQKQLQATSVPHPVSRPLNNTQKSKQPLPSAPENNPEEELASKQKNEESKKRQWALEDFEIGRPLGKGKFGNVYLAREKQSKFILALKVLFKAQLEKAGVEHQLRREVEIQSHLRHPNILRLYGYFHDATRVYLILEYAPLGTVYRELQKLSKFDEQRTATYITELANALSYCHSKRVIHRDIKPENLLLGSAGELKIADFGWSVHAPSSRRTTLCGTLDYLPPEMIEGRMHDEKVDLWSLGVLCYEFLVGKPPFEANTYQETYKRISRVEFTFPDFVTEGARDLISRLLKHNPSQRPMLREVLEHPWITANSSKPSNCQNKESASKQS
UniProt Q9H093, whole entry: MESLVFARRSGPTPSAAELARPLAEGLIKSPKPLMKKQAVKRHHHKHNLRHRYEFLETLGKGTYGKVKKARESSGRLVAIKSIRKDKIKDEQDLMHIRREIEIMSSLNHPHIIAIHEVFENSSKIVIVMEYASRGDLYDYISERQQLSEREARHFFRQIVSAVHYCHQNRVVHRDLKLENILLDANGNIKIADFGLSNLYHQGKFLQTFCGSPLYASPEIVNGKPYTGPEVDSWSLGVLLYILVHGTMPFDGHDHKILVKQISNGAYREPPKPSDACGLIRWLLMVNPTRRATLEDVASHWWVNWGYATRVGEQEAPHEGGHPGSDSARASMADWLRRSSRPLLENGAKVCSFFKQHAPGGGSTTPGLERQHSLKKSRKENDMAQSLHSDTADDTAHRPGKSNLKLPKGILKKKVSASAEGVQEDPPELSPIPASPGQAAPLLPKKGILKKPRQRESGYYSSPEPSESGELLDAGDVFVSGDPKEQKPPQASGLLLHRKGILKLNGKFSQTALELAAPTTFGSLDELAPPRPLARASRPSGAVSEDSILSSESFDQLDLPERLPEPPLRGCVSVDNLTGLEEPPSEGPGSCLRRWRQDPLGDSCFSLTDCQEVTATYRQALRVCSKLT

Type in all cases: biochemical
For one test, the target named is NUAK1 (Homo sapiens, UniProt O60285). In words: NUAK1 counter screen. Particulars: read-out: NUAK1 (IC50). On the procedure: (§1) To identify small molecule NUAK inhibitors, a biochemical NUAK2 enzymatic assay was outsourced to Eurofins. This assay was done radiometrically using full-length, recombinant enzyme. NUAK2 (h) was incubated with 8 mM MOPS pH 7.0, 0.2 mM EDTA, 300 μM […], 10 mM magnesium acetate and […] (specific activity and concentration as required). The reaction was initiated by the addition of the Mg/ATP mix. After incubation for 40 minutes at room temperature, the reaction was stopped by the addition of phosphoric acid to a concentration of 0.5%. 10 μL of the reaction was then spotted onto a P30 filter mat and washed four times for 4 minutes in 0.425% phosphoric acid and once in methanol prior to drying and scintillation counting. Compounds were routinely counter screened against Aurora A and NUAK1. The results are shown in Table 1 where IC50s are reported the following ranges: A: 0.1-10 nM; B: 11-100 nM; C: 101-1000 nM; D: >1000 nM for the compounds of Formula I)
For orientation: A counterscreen serves to expose hits that act by an unwanted route or on another target.

Another test deals with Aurora A (Homo sapiens, UniProt O14965). As to the kind of experiment: Aurora A counter screen. To be noted: read-out: AUR-A (IC50). The method, then:
as §1

For a further test, the target named is NUAK2 (h) (Homo sapiens, UniProt Q9H093). As to the kind of experiment: NUAK2 enzymatic assay (radiometric, Eurofins). Particulars: read-out: NUAK2 (IC50), full-length recombinant enzyme. On the procedure:
as §1

One may read the IC50 as the concentration at which inhibition is half-maximal. Regarding `Cc1cnc(Nc2ccc(N3C[C@@H](C)N(C)[C@@H](C)C3)cc2OC(F)F)nc1Nc1ccsc1C(N)=O`, the IC50 at NUAK1 was in the range of 11 to 100 nM; at Aurora A, 101 to 1000 nM; at NUAK2 (h), 11 to 100 nM.
